Settings: formulation stored for many months at about 4°C; intra-nasal metered spray

With `C[C@H](N)C(=O)N[C@@H](CO)C(=O)N[C@H](C(=O)N[C@H](C(=O)N[C@H](C(=O)N[C@@H](CC(N)=O)C(=O)N[C@@H](Cc1ccc(O)cc1)C(=O)N[C@H](C(=O)O)[C@@H](C)O)[C@@H](C)O)[C@@H](C)O)[C@@H](C)O` [Peptide T] as the molecule, how does the “diminished ability to enter the plasma” value read?
Its value is 10 fold.

From patent publication EP2505189B1, “Stabilizing alkylglycoside compositions and method thereof” (Aegis Therapeutics, LLC, priority 2006, dated 2007)
